Assay results: patent EP4834339A1, “COMPOUND COMPOSITION OF ADAPALENE AND DAPSONE, PREPARATION METHOD THEREFOR, AND USE THEREOF” (dated 2026)

Experiment: Solubility of adapalene in various media
Conditions: adapalene in purified water, room temperature, 24 hours

Question: Which Solubility does the source give for `COc1ccc(-c2ccc3cc(C(=O)O)ccc3c2)cc1C12CC3CC(CC(C3)C1)C2` here?
Answer: 0.07 µg/mL (≈ 0.17 µM)

Values after ≈ are worked out from the molar mass of the structure shown.
